For 14 molecules, IC50 results are on record in patent publication US8952169B2 (Genentech, Inc., priority 2012, dated 2015).

Protein sequences, listed by entry. Tags and fused reporters are not part of them.
UniProt Q15858, whole entry, looked up: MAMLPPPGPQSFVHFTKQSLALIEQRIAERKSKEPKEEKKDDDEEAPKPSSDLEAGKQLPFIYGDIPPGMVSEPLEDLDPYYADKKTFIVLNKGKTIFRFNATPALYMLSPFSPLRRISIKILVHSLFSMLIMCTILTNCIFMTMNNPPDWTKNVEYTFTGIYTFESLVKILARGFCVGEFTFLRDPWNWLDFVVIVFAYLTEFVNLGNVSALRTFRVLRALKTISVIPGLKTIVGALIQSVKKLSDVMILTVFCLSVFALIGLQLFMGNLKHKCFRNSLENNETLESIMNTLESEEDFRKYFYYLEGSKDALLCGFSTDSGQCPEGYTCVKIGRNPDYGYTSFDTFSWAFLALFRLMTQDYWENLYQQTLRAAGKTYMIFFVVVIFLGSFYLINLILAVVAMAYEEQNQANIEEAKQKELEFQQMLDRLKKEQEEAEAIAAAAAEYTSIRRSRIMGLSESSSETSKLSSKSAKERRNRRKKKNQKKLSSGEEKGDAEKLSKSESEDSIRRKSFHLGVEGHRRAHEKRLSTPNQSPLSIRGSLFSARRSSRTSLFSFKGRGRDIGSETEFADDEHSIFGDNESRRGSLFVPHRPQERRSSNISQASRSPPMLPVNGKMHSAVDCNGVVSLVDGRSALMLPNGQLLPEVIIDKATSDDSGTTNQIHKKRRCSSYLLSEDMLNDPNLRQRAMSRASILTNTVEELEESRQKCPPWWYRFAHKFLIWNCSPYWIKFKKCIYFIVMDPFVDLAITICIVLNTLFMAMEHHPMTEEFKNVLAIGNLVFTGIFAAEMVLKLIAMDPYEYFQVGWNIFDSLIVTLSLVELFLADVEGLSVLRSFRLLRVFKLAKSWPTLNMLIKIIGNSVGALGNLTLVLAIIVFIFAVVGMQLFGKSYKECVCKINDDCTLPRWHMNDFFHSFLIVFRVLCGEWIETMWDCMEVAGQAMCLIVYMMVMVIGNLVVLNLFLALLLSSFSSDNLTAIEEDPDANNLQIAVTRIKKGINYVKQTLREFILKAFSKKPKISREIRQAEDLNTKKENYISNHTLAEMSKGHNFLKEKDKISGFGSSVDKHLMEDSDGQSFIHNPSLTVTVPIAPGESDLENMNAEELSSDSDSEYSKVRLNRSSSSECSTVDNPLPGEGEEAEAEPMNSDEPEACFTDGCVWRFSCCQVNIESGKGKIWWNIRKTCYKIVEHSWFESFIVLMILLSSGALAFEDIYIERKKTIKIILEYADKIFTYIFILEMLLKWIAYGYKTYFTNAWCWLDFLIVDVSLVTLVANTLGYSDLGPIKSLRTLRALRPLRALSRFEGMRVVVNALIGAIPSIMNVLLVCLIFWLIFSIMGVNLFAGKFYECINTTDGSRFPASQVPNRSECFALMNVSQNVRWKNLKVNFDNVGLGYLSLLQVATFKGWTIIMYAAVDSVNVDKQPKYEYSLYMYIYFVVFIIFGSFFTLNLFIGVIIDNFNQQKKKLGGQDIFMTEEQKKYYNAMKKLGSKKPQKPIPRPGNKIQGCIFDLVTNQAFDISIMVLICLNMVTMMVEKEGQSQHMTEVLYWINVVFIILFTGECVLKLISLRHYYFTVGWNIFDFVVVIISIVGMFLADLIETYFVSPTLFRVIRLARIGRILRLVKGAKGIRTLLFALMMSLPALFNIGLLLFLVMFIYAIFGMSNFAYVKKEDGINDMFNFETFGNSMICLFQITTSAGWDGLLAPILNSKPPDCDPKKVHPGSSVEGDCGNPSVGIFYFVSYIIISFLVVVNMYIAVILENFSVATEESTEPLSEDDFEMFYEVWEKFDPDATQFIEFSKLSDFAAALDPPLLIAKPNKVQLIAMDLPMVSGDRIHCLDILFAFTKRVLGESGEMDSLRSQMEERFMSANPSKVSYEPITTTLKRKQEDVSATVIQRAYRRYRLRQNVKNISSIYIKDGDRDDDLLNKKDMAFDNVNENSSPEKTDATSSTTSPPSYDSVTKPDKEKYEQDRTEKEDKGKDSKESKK

Experiment [1] has as its target T1, hNav1.7 (Homo sapiens (Human), UniProt Q15858). The experiment in a line: Patch voltage clamp electrophysiology (PatchXpress), HEK-293 cells, inactivated state block. It counts as cell-based. The settings on record: read-out: EP_PX 293 hNav1.7 (IC50).
Experiment [2] deals with T1, hNav1.7. The experiment in a line: Tritiated aryl sulfonamide binding to membranes from cells expressing hNav1.7 and the β1 subunit (competitive binding). The settings on record: membranes with hNav1.7 and β1 subunit; [3H]compound displacement, 18 h, room temperature; read-out: NaV1.7 395 Memb Binding (IC50). How it is done:
Tritiated Aryl Sulfonamide Binding to Membranes Isolated from Cells that Heterologously Express hNav1.7 and the β1 Subunit
Preparation of membranes containing recombinantly expressed sodium channels: Frozen recombinant cell pellets were thawed on ice and diluted to 4 times the cell pellet weight with ice cold 50 mM Tris HCl, pH 7.4 buffer. The cell suspensions were homogenized on ice using a motorized glass dounce homogeniser. Homogenates were further diluted 8.4 times with ice cold 50 mM Tris HCl, pH 7.4 buffer and then centrifuged at 200×g at 4° C. for 15 min. The supernatants were collected and centrifuged at 10000×g at 4° C. for 50 min. The pellets were then re-suspended in 100 mM NaCl, 20 mM Tris HCl, pH 7.4 buffer containing 1% v/v protease inhibitors (Calbiochem) and re-homogenized on ice. The homogenized membranes were then processed through a syringe equipped with a 26 gauge needle. Protein concentrations were determined by Bradford Assay and the membranes were stored at −80° C.
Radioligand Binding Studies: Saturation experiments. A representative compound of formula (I) was tritiated. Three tritiums were incorporated in place of methyl hydrogens to generate [^3H]compound. Binding of this radioligand was preformed in 5 mL borosilicate glass test tubes at room temperature. Binding was initiated by adding membranes to increasing concentrations of [^3H]compound in 100 mM NaCl, 20 mM Tris HCl, pH 7.4 buffer containing 0.01% w/v bovine serum albumin (BSA) for 18 h. Non-specific binding was determined in the presence of 1 μM unlabelled compound. After 18 h, the reactants were filtered through GF/C glass fiber filters presoaked in 0.5% w/v polyethylene imine. […] [^3H]compound bound to filters was quantified by liquid scintillation counting.
Competitive binding experiments. Binding reactions were preformed in 96-well polypropylene plates at room temperature for 18 h. In 360 μL, membranes were incubated with 100 μM [^3H]compound and increasing concentrations of Test Compound. Non-specific binding was defined in the presence of 1 μM unlabelled compound. Reactions were transferred and filtered through 96-well glass fiber/C filter plates presoaked with 0.5% polyethylene imine. The filtered reactions were washed 5 times with 200 L ice cold buffer containing 0.25% BSA. Bound radioactivity was determined by liquid scintillation counting.
Data Analysis: For saturation experiments, non-specific binding was subtracted from total binding to provide specific binding and these values were recalculated in terms of pmol ligand bound per mg protein. Saturation curves were constructed and dissociation constants were calculated using the single site ligand binding model: Beq=(Bmax*X)/(X+Kd), where Beq is the amount of ligand bound at equilibrium, Bmax is the maximum receptor density, Kd is the dissociation constant for the ligand, and X is the free ligand concentration.

Where [3] appears, read: HEK-293 cells, β1 coexpressed, inactivated state, holding −60 mV.

Regarding `CS(=O)(=O)NC(=O)c1cc(Cl)c(OC[C@H]2CC[C@H](C(F)(F)F)CC2)cc1F`, the IC50 (as a rule, the midpoint of a concentration-inhibition curve) on hNav1.7 [1] (setting [3]) was 84.7 nM. The same measure, in the same setting: under `CN(C)S(=O)(=O)NC(=O)c1cc(Cl)c(OC2CC3CC2C2CCCC32)cc1F` (stereo not drawn) stands 30.4 nM. `O=C(NS(=O)(=O)C1CC1)c1cc(Cl)c(OCC23CC4CC(CC(C4)C2)C3)cc1F`: the IC50 at hNav1.7 [2] was 4.32 nM. As for `O=C(NS(=O)(=O)N1CC(F)C1)c1cc(C2CC2)c(OCC23CC4CC(CC(C4)C2)C3)cc1F`, at hNav1.7 [1] (setting [3]), the IC50 turned out to be 4.3 nM. Take `CS(=O)(=O)NC(=O)c1ccc(OCCC23CC4CC(CC(C4)C2)C3)c(Cl)c1`: at hNav1.7 [1] (setting [3]), the half-maximal inhibitory concentration (IC50) came out at 56.3 nM. The same measure, in the same setting: under `CC1(C)[C@H]2CC[C@H](COc3cc(F)c(C(=O)NS(C)(=O)=O)cc3Cl)[C@@H]1C2` stands 3.8 nM.

As to “4-((1-((4-chlorophenyl)(phenyl)methyl)azetidin-3-yl)-methoxy)-5-cyclopropyl-2-fluoro-N-(methylsulfonyl)benzamide [Example 398]”, on hNav1.7 [1], the IC50 stood at 1300 nM.

Turning to `CS(=O)(=O)NC(=O)c1cc(Cl)c(OC2C3CC4CC(C3)CC2C4)cc1F` (stereo not drawn) [Example 9], the concentration for half-maximal inhibition (IC50) at hNav1.7 [1] (setting [3]) was 5.2 nM. For `C[C@@H]1[C@H]2C[C@@H](C[C@H]1Oc1cc(F)c(C(=O)NS(C)(=O)=O)cc1Cl)C2(C)C` [Example 10], the IC50 on hNav1.7 [2] was determined as 260 nM. Turning to `CS(=O)(=O)NC(=O)c1cc(Cl)c(OCCC23CC4CC(CC(C4)C2)C3)cc1F` [Example 11], the IC50 at hNav1.7 [1] (setting [3]) turned out to be 8.7 nM. Turning to `C[C@@H]1[C@@H](Oc2cc(F)c(C(=O)NS(C)(=O)=O)cc2Cl)C[C@H]2C[C@@H]1C2(C)C` [Example 14], at hNav1.7 [2], the IC50 is 320 nM. On the same count and under the same terms, the figure for `O=C(NS(=O)(=O)CCO)c1cnc(OCC23CC4CC(CC(C4)C2)C3)c(C2CC2)c1` [Example 174] is 1100 nM.

`CS(=O)(=O)NC(=O)c1cc(F)c(OCC23CC4CC(CC(C4)C2)C3)c(Cl)c1F` [Example 306, N-(azetidin-1-ylsulfonyl)-5-cyclopropyl-4-((4,4-dichlorocyclohexyl)-methoxy)-2-fluorobenzamide]: the figures for the IC50 on hNav1.7 [2] and on hNav1.7 [1] (setting [3]) were 1300 nM and 4600 nM, respectively. For `C[C@H]1CC[C@H](COc2cc(F)c(C(=O)NS(=O)(=O)N3CCC3)cc2C2CC2)CC1` [Example 420], the IC50 on hNav1.7 [1] worked out at 87 nM.
